Source: patent publication US6797710B2, “Heterocyclic derivatives and their use as antithrombotic agents” (Akzo Nobel N.V., priority 1997, dated 2004)
Structures can show the parent of a compound that is named as a salt.

How the values were obtained:
[1] = target: Human thrombin (Homo sapiens, UniProt P00734); test: Anti-thrombin assay (hydrolysis of chromogenic substrate S-2238); assay type: biochemical; settings: pH 7.4; read-out: Antithrombin activity: IC50
Procedure: Thrombin (Factor IIa) is a factor in the coagulation cascade.
The anti-thrombin activity of compounds of the present invention was assessed by measuring spectrophotometrically the rate of hydrolysis of the chromogenic substrate s-2238 exterted by thrombin. This assay for anti-thrombin activity in a buffer system was used to assess the IC50-value of a test compound.
Preparation of test and reference compound solutions
The test and reference compounds are dissolved in Milli-Q water to give stock concentrations of 10^−2 mol·l^−1. Each concentration is stepwise diluted with the vehicle to give concentrations of 10^−3, 10^−4 and 10^−5 mol·l^−1. […]
At room temperature 0.075 ml and 0.025 ml test compound or reference compound solutions or vehicle are alternately pipetted into the wells of a microtiter plate and these solutions are diluted with 0.115 ml and 0.0165 ml TNP buffer, respectively. […] Starting after 1 min of incubation, the absorbance of each sample at 405 nm is measured every 2,min. for a period of 90 min. using a kinetic microtiter plate reader (Twinreader plus, Flow Laboratories).
All data are collected in an IBM personal computer using LOTUS-MEASURE. For each compound concentration (expressed in mol·l^−1 reaction mixture) and for the blank the absorbance is plotted versus the reaction time in min. […]

[2] = target: Bovine Factor Xa (Bos taurus, UniProt P00743); test: Anti-factor Xa assay (hydrolysis of chromogenic substrate S-2222); assay type: biochemical
Source text: Activated Factor X (Xa) is a factor in the coagulation cascade. […] This assay for anti-Xa activity in a buffer system was used to assess the IC50-value of the test compound.
In general the followed procedure and test conditions were analogous to those of the anti-thrombin assay as described above. Differences are indicated below.

COc1cc(C)c(S(=O)(=O)N[C@@H](CC(=O)OC(C)(C)C)C(=O)NC(Cc2ccc3c(N)nccc3c2)C(=O)N2CCCCC2)c(C)c1C (mixture of isomers) [Example 8, (3S)-4-[[1-[(1-amino-6-isoquinolinyl)methyl]-2-oxo-2-(1-piperidinyl)ethyl]amino]-3-[[(4-methoxy-2,3,6-trimethylphenyl)sulfonyl]amino]4-oxo-butanoic acid 1,1-dimethylethylester hydrochloride]
IC50 [1]: 82 nM

COc1ccc2ccc(S(=O)(=O)NC(Cc3cc4c(N)nccc4s3)C(=O)N3CCN(S(C)(=O)=O)CC3)cc2c1 (stereo not drawn) [Example 14, 1-[3-(4-aminothieno[3,2c]pyridin-2-yl)-2-[[(7-methoxy-2-naphthalenyl)sulfonyl]amino]-1-oxopropyl]-4-(methylsulfonyl)piperazine hydrochloride]
IC50 [2]: 41 µM

COc1ccc2ccc(S(=O)(=O)NC(Cc3cc4c(N)nccc4s3)C(=O)N3CCN(C)CC3)cc2c1 (stereo not drawn) [Example 24, 1-[3-(4-aminothieno[3,2c]pyridin-2-yl)-2-[[(7-methoxy-2-naphthalenyl)sulfonyl]amino]-1-oxopropyl]-4-methylpiperazine dihydrochloride]
IC50 [2]: 14 µM
